Test results published in US10189782B2, “Derivatives of indole for the treatment of cancer, viral infections and lung diseases” (BIOKINESIS, priority 2012, dated 2019).

Target: T1, Human recombinant MKlp2 motor domain1-519, His tagged (Homo sapiens, UniProt O95235)
T1 construct: Human recombinant MKlp2 motor domain1-519, His tagged; His; purchased Cytoskeleton MP05
T1 sequence (O95235 1-519): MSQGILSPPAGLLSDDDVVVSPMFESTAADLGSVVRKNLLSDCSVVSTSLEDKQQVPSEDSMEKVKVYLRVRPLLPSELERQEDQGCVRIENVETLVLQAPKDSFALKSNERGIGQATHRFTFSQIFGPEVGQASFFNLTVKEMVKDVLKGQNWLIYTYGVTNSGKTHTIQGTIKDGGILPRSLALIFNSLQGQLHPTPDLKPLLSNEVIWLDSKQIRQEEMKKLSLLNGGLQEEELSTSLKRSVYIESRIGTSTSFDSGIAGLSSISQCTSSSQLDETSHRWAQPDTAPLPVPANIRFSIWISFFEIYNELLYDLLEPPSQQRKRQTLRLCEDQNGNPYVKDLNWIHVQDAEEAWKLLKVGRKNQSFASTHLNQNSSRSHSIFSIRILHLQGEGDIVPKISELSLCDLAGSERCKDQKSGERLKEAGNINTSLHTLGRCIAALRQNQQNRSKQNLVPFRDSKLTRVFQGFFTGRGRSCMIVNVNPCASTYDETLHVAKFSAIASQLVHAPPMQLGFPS
Experiment: Microtubule stimulated ATPase activity of the MKlp2 motor domain (Kinesin ELIPA Assay Kit)
Assay type: biochemical
Conditions: MKIp2 IC50 (μM), Table 3, 22° C.
Procedure: Evaluation of Inhibitory Effects on the Microtubule Stimulated ATPase Activity of the MKlp2 Motor Domain.
MKlp2 ATPase activity was measured by monitoring real time free phosphate generation using the Kinesin ELIPA Assay Kit. The assay is based upon an absorbance shift (330 nm-360 nm) that occurs when 2-amino-6-mercapto-7-methylpurine ribonucleoside (MESG) is catalytically converted to 2-amino-6-mercapto-7-methylpurine in the presence of inorganic phosphate (Pi). One molecule of Pi will yield one molecule of 2-amino-6-mercapto-7-methylpurine in an essentially irreversible reaction.
All experiments were performed at 22° C.
Condition 1, compound preparation.
The compounds were dissolved in DMSO at 30× the maximum concentration to be tested. […] DMSO solutions were pipetted directly into each well.
Condition 2, reaction's “motor mix”.
The following were mixed sequentially in the specified order at RT to obtain the “motor mix”.
20 mL: 15 mM Pipes-NaOH pH 7.0, 10 mM MgCl2, 30 μM Tx (Buffer 1).
10 mL: 5× MSEG (ELIPA 1 reagent, Cat. # BK051).
10 mL: 2.5 mg/mL porcine brain microtubules (3×10 mg Cat. # MT002-XL resuspended in 12 mL of Buffer 1).
0.5 mL: 100×PNP (ELIPA 2 reagent, cat. # BK051). […]
The reactions were measured in a SpectraMax M2 (Molecular Devices) set in kinetic mode and 360 nm absorbance wavelength. The start protocol was 5 second rapid circular mixing, 21 readings, 30 seconds apart.

SMILES: N#CC(=Cc1cccnc1)c1c[nH]c2ccc(Br)cc12 [W02010/150211-Example 37, reference compound]
- IC50: 1.5 µM
